We go through 4 compounds from PubChem BioAssay (Tox21).

Sequences of proteins named here, by UniProt entry; tags and fusion partners are left off.
UniProt P16473, whole entry: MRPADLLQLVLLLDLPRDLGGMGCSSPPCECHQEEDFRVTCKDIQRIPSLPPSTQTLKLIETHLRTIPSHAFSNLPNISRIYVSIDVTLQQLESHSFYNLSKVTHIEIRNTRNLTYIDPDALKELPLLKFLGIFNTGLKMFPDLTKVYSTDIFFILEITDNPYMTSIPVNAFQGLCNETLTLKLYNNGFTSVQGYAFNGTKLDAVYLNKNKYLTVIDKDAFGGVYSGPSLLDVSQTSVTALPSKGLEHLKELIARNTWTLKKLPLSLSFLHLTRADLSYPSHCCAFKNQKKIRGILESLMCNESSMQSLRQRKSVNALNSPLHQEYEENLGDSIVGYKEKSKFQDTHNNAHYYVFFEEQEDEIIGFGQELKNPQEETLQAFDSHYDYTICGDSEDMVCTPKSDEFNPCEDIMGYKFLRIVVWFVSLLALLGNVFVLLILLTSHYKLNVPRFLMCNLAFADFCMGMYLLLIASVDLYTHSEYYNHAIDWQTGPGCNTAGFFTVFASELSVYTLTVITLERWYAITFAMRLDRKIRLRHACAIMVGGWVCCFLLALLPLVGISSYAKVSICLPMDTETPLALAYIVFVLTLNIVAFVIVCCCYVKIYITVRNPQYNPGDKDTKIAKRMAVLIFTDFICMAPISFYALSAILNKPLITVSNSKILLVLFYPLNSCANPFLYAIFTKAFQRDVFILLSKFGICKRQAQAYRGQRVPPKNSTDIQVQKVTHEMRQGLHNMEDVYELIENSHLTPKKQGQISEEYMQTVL

Experiment [1] addresses Thyrotropin receptor (Homo sapiens) (UniProt P16473). Briefly: qHTS assay to identify small molecule agonists of the thyroid stimulating hormone receptor (TSHR) signaling pathway (AID 1224843; calls by dose curve; note: nearly all actives have a fitted effect of over 45% in size; note: potency is the fitted concentration of half-maximal effect). A general note: qHTS replaces the single test concentration by a dilution series.
A short description of experiment [2]: qHTS assay to identify small molecule agonists of the hypoxia (HIF-1) signaling pathway - cell viability counter screen (AID 1224844; calls by dose curve; note: nearly all actives have a fitted effect of over 50% in size). The following applies: HRE-bla ME-180 viability, CellTiter-Glo luminescence, 17 h; at 76.8 µM (top of the series) unless noted. The source says: (§1) National Center for Advancing Translational Sciences [NCATS]
(§2) NIH Chemical Genomics Center [NCGC]
(§3) U.S. Environmental Protection Agency [EPA]
(§4) National Institutes of Environmental Health Sciences [NIEHS]
(§5) National Toxicology Program [NTP]
(§6) U.S. Food and Drug Administration [FDA]
Hypoxia-inducible factor-1 (HIF-1) is the major hypoxia-regulated transcription factor that controls cellular responses to low oxygen concentration. HIF-1 is composed of two subunits: hypoxia responsive HIF-1-alpha and constitutively expressed HIF-1-beta, which is also known as aryl hydrocarbon receptor nuclear translocator. During hypoxic conditions, HIF-1-alpha heterodimerizes with HIF-1-beta and translocates into the nucleus where the HIF-1 complex binds to the hypoxia-response element (HRE) and activates expression of target genes such as VEGF (vascular endothelial growth factor). The HIF-1 pathway is essential to normal growth and development, and is involved in the pathophysiology of cancer, inflammation, and ischemia.
Using a beta-lactamase reporter-gene under control of the hypoxia response element, a cell-based assay [CellSensor(TM) HRE-bla ME-180 from Life Technologies, Carlsbad, CA] was used to measure hypoxia-induced signaling. Tox21 10K library compounds were measured for their ability to induce the reporter gene activity. The cytotoxicity of the Tox21 compound library against HRE-bla ME-180 cell line was tested in parallel by measuring cell viability using CellTiter-Glo assay (Promega, Madison, WI) in the same assay wells.
(§7) Tox21 Assay Protocol Summary:
HRE-bla ME-180 cells were dispensed at 2,000 cells per well in 6 uL of assay medium containing 0.5% dialyzed FBS into black wall/clear-bottom 1536-well plates using a Multidrop Combi (Thermo Scientific, Waltham, MA) dispenser. After the assay plates were incubated at 37C and 5% CO2 for 5 hrs, 23 nL of compounds dissolved in DMSO, positive controls or DMSO only was transferred to each well of the assay plate using a Pintool station (Kalypsys, San Diego, CA). The assay plates were incubated at 37C and 5% CO2 for 17 hrs. One uL of LiveBLAzerTM B/G FRET substrate (CCF4-AM) (Life Technologies) was added to each well using a Flying Reagent Dispenser (FRD, Aurora Discovery, San Diego, CA). After 2 hr incubation at room temperature, fluorescence intensity (405 nm excitation, 460 nm and 530 nm emissions) was measured using an Envision plate reader (PerkinElmer, Shelton, CT). For cytotoxicity, 4 ul/well of CellTiter-Glo reagent was added into the assay plates using an FRD. After 30 min incubation at room temperature, the luminescence intensity was measured using a ViewLux plate reader (PerkinElmer).

The nature of experiment [3]: qHTS assay to identify small molecule agonists of H2AX (AID 1224845; active = well fitted activation curve with a large enough effect in the signal ratio in the repeat runs, not every such curve was filed as active; the % refers to the signal ratio). Conditions: CHO-K1 phospho-H2AX Ser139 HTRF, 3 h; at 154 µM (top of the series) unless noted.
Excerpt: as §1, §2, §3, §4, §5, §6
(§8) HTRF phospho-H2AX (Ser139) assay (Cisbio Bioassays, US) enables the quantitative detection of the histone variant H2AX when phosphorylated on serine 139. When double-stranded DNA breaks, either by ionizing radiation or endogenous physiological processes, H2AX becomes phosphorylated at Ser139. This phospho-Ser139 serves as a sensitive biomarker for the detection of such breaks, localizing the site of DNA repair. So, HTRF phospho-H2AX Ser139 is a pertinent assay to study genome stability, the cell cycle, DNA repair, and it serves as a biomarker for cancer, and to understand aging. Wild type CHO-K1 cells were used to identify the inducers of Phospho-H2AX Ser 139 from the Tox21 10K compound collections.
as §7
The CHO-K1 cells suspended in culture medium containing 10% FBS were dispensed at 1000 cells/ 3 ul/well in 1536-well white wall/solid bottom plates (Greiner Bio-One North America, NC) using a Multidrop Combi (Thermo Fisher Scientific Inc., Waltham, MA). After the assay plates were incubated at 37C overnight, 23 nl of compounds at 15 concentrations (from 5-48 columns) or positive control (from 1 to 4 columns) were transferred to the assay plates using a Pintool station (Wako, San Diego, CA) into each well resulting in a final DMSO concentration of 0.76%. After 3hr incubation at 37C, 1 uL/well Supplemented Lysis buffer (diluted 100 fold blocking reagent in lysis buffer) (HTRF Phospho-H2A.X (S139) Assay kit from Cisbio US Inc., Bedford, MA) was added using a Flying Reagent Dispenser (FRD) (Aurora Discovery, CA). After 10sec spin at 1000 rpm in a plate centrifuge, the assay plates were incubated at room temperature for 30 min. Then followed by the addition of 1 uL/well detection buffer (containing a mixture of two antibodies, one labeled with cryptate, Anti pH2AX (S139)-K and another labeled with d2, Anti H2AX-d2) using FRD. After incubation at room temperature for 24 hr, the time resolved fluorescence at excitation 320 nm and emissions at 665 nm and 620 nm was measured using an Envision plate reader (PerkinElmer, Waltham, MA).

Experiment [4] can be described thus: qHTS assay to identify small molecule agonists of the hypoxia (HIF-1) signaling pathway (AID 1224846; active = well fitted activation curve with a large enough effect in the signal ratio in the repeat runs, not every such curve was filed as active; the % refers to the signal ratio). The following applies: HRE-bla ME-180 cells, beta-lactamase ratio, 17 h; at 76.8 µM (top of the series) unless noted. Put shortly:
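HRE-bla ME-180 beta-lactamase reporter cells in medium with 0.5% dialyzed FBS, pre-incubated 5 h then exposed to compounds 17 h at 37C, 5% CO2; reporter induction read with CCF4-AM FRET substrate.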

The nature of experiment [5]: qHTS assay to identify small molecule agonists of H2AX - cell viability counter screen (AID 1224847; calls by dose curve; note: top concentration of the series differs between compounds; nearly all actives have a fitted effect of over 30% in size). Conditions: CHO-K1 viability, CellTiter-Glo luminescence, 3 h; at 154 µM (top of the series) unless noted.
Excerpt: as §1, §2, §3, §4, §5, §6
as §8, with “Tox21 compound collections. Also cytotoxicity of the Tox21” for “Tox21”, “library against the CHO-K1 cell line was tested by measuring the cell viability using CellTiter-Glo assay (Promega, Madison, WI).” for “collections.”
as §7
The CHO-K1 cells suspended in culture medium containing 10% FBS were dispensed at 1000 cells/ 3 ul/well in 1536-well white wall/solid bottom plates (Greiner Bio-One North America, NC) using a Multidrop Combi (Thermo Fisher Scientific Inc., Waltham, MA). After the assay plates were incubated at 37C overnight, 23 nl of compounds at 15 concentrations (from 5-48 columns) or positive control (from 1 to 4 columns) were transferred to the assay plates using a Pintool station (Wako, San Diego, CA) into each well resulting in a final DMSO concentration of 0.76%. After 3hr incubation at 37C, 3 uL/well CellTiter-Glo luminescent cell viability reagent (Promega Corporation, Madison, WI) was added using a Flying Reagent Dispenser (FRD) (Aurora Discovery, CA). After incubation at room temperature for 30 min, the luminescence intensity was read using a ViewLux plate reader (PerkinElmer, Waltham, MA).

Experiment [6] in a line: qHTS assay to identify small molecule antagonists of the estrogen related receptor (ERR) signaling pathway from Tox21 library (AID 1224848). Note: nearly all actives have a fitted effect of over 50% in size. Note: potency is the fitted concentration of half-maximal effect. Put shortly:
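Luminescent reporter read-out (ONE-Glo) from NTP's ERR cell line after 18 h treatment at 37 C with DMSO-dissolved Tox21 compounds; cells pre-plated 6 h beforehand at 2,000 per well.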

Experiment [7] is described as follows: qHTS assay to identify small molecule agonists of the estrogen related receptor (ERR) signaling pathway from Tox21 library (AID 1224849; calls by dose curve; note: nearly all actives have a fitted effect of over 15% in size). The following applies: ERR reporter cell line, ONE-Glo luciferase, 18 h; at 92.4 µM (top of the series) unless noted.
Excerpt: as §1, §2, §3, §4, §5
Estrogen related receptors (ERRs), the first orphan nuclear receptors discovered, play an important role in the control of cellular energy metabolism. ERRs are required for high-energy production in response to the environmental challenges. ERR-alpha was also identified as an adverse marker for breast cancer progression; ERR-alpha-positive tumors have a poor prognosis. To screen and to identify environmental compounds that perturb the ERR signaling pathways could provide valuable information for potential therapeutic or preventive measures in the treatment of metabolic disease. For identifying ERR agonists, ERR cell line (provided by NTP) has been used to screen Tox21 10K library.
The ERR cells were dispensed at 2,000 cells/5 ul/well in 1536-well white plates using a Multidrop dispenser. After the assay plates were incubated at a 37 C/5% CO2 incubator for 6 hours, 23 nL of compounds dissolved in DMSO, positive and negative controls or DMSO only was transferred to the assay plate by a pin tool. The plates were incubated at 37 C for 18 hours. 4 ul/well of One-Glo reagent was added into the assay plates using a Flying Reagent Dispenser. After 30-minute incubation at room temperature, the luminescence intensity in the plates was measured using a ViewLux plate reader.

A short description of experiment [8]: qHTS RealTime-Glo MT Cell Viability Assay in HepG2 cells - 24 hour (AID 1224867). Note: nearly all actives have a fitted effect of over 50% in size. Conditions: RealTime-Glo luminescence; at 76.8 µM (top of the series) unless noted. The method, boiled down:
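Compound treatment began 5 h after plating HepG2 cells (600/well) with NanoLuc luciferase and prosubstrate. Plates stayed at 37 C for 40 h; luminescence was captured at six time points, 0 h through 40 h.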

Experiment [9] in a line: qHTS RealTime-Glo MT Cell Viability Assay in HEK293 cells - 32 hour (AID 1224868). Note: nearly all actives have a fitted effect of over 50% in size. Note: potency is the fitted concentration of half-maximal effect.
Excerpt: as §1, §2, §3, §4, §5, §6
Measure of cell viability is critical in the cell-base assay. Analysis of cell viability is necessary for the characterization of cell responses to cytotoxic drugs and environmental stress. A RealTime-Glo MT Cell Viability Assay to monitor cell viability in real time of continues cell culture during 40 hours of compound treatment was used to screen Tox21 10K library compounds in Hek293 cells. The RealTime-Glo MT Cell Viability Assay is a nonlytic, homogeneous, bioluminescent method to measure cell viability in real time using a simple, plate-based method. The assay involves adding NanoLuc luciferase and a cell-permeant prosubstrate to cells in culture. Viable cells reduce the proprietary prosubstrate to generate a substrate for NanoLuc luciferase. This substrate diffuses from cells into the surrounding culture medium, where it is rapidly used by the NanoLuc Enzyme to produce a luminescent signal. The signal correlates with the number of viable cells, making the assay well suited for cytotoxicity studies.
as §7
The mixture of Hek293 cell suspension and reagents were dispensed at 600cells/6 ul/well in 1536-well tissue culture treated black solid bottom plates using a Multidrop dispenser. After the assay plates were incubated at a 37 C/5% CO2 incubator for 5 hours, 23 nL of compounds dissolved in DMSO, positive and negative controls was transferred to the assay plate by a pintool work station. The plates were incubated at 37 C for 40 hours. The luminescence intensity were measured at 0h, 8h, 16h, 24h, 32h and 40h time points using ViewLux plate reader during compound treatment.

Experiment [10] in a line: A CellTox Green Cytotoxicity Assay to monitor cytotoxicity in HEK293 cells - 0 hour (AID 1224869). Note: nearly all actives have a fitted effect of over 50% in size. Conditions: CellTox Green fluorescence; at 76.8 µM (top of the series) unless noted. Put shortly: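 HEK293 cells, 600/well, were preincubated 5 hours and then exposed to compounds at 37 C for up to 40 hours. A cell-impermeant cyanine dye staining dead-cell DNA was read by fluorescence at 0, 8, 16, 24, 32 and 40 h time points.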

“And” between values parts separate entries of the source, which are not always exact repeats. Identical values can stand only once. Only a part is listed here, and it is no random draw. Records with an inconclusive call do not appear. Some compounds were tested as several samples or in several runs, with calls that do not always agree. The source made the active and inactive calls. Unless noted, calls come from the whole dose curve; as a rule, active = well fitted curve in the direction sought with a large enough effect in the repeat runs; inconclusive = weak or mixed curves; inactive = no such curve, though single readings can be large; an effect the other way counts as inactive or inconclusive.
% is set by controls: 0 for no effect and ±100 for the full control effect.

Take `ClCCOP(OCCCl)OCCCl`: the Potency result in experiment [1], in experiment [6] and in experiment [9] was “inactive” throughout. The activity change, negative = cytotoxicity in experiment [2] is inactive: 0.998% and inactive: -0.521%; in [5], inactive: -1.14% and inactive: -3.63%; in [8] it was inactive: 1.86% and inactive: 1.08%. Besides, the activation (H2AX phosphorylation) in experiment [3] was inactive: 0.346% and inactive: 0.482%. Further, in [4], the activation was inactive: 0.368% and inactive: 0.0801%. In addition, in experiment [7], the activity change, positive = activation is inactive: 0.387% and inactive: 2.66%. Moreover, the cytotoxicity in experiment [10] was inactive: -4.17% and inactive: 4.81%.

Consider `O=[N+]([O-])c1ccccc1[N+](=O)[O-]`, for which the Potency entry in experiment [1] and in [9] was “inactive” in each case. In addition, the activation (H2AX phosphorylation) in [3] was inactive: -1.71%. In addition, in experiment [4], the activation was inactive: -1.12% and inactive: -0.697%. In addition, the activity change, negative = cytotoxicity in [5] was inactive: -7.3% and inactive: 1.48%; in experiment [8], inactive: 1.83% and inactive: 0.832%. The Potency in [6] was active: 70.3 µM and inactive. The activity change, positive = activation in experiment [7] is inactive: -32.1% and inactive: -17.3%. Besides, in experiment [10], the cytotoxicity is inactive: -0.153% and inactive: 0.438%.

Regarding `CC(C)OP(OC(C)C)OC(C)C`, the Potency result in experiment [1], in experiment [6] and in experiment [9] was “inactive” in each case. Moreover, the activity change, negative = cytotoxicity in experiment [2] is inactive: 0.597%; in [5], inactive: 1.96%; in [8], inactive: 0.0636%. In addition, the activation (H2AX phosphorylation) in experiment [3] was inactive: -2.27%. For the same compound, in experiment [4], the activation was inactive: -1.08%. Also, in experiment [7], the activity change, positive = activation was inactive: 0.516%. For the same compound, in experiment [10], the cytotoxicity is inactive: 0.236%.

Consider `CCOP(=O)(Cl)Cl`, for which the Potency was active: 9.52 µM and inactive in [1]; “inactive and active: 21.9 µM” in [9]. Also, the activity change, negative = cytotoxicity in experiment [2] was inactive: 6.54% and inactive: 0.47%; in experiment [5] it was inactive: -2.05% and inactive: -0.653%; in [8] it was inactive: 0.457% and inactive: -0.378%. Further, the activation (H2AX phosphorylation) in [3] is inactive: 3.02% and inactive: -0.493%. For the same compound, in experiment [4], the activation is inactive: -0.0415% and inactive: -0.0696%. For the same compound, the Potency entry in [6] is “inactive”. Moreover, the activity change, positive = activation in experiment [7] was inactive: -2.01% and inactive: -4.33%. Besides, the cytotoxicity in [10] is inactive: -8.35% and inactive: -0.857%.
